{"source": "patent US11779630B2", "about": "“Peptides and methods of using the same” (SERPIN PHARMA, LLC, priority 2020, dated 2023)", "key": {"[1]": {"test_system": "mice, formalin pain model", "experiment": "Formalin pain test", "type": "in vivo", "settings": "50 μg subcutaneously before intraplantar formalin"}, "[2]": {"test_system": "mice, partial nerve ligation model", "experiment": "Partial nerve ligation (PNL) neuropathic pain model", "type": "in vivo", "settings": "50 μg 1 hour prior to surgery; days 1, 3, 6, 8"}, "Vero cells": {"test_system": "Vero cells", "experiment": "Vero cell viability, cell-titer-glo assay", "type": "cell-based", "settings": "increasing concentrations"}, "[3]": {"test_system": "Akata, Huh7, Vero 76, MDCK", "experiment": "Cell toxicity in the cell lines of the viral screen", "type": "cell-based", "settings": "each cell line, top concentration tested"}, "[4]": {"experiment": "PK in rats, intravenous injection", "settings": "rat, in vivo"}, "[5]": {"experiment": "Preliminary pharmacokinetic study, single subcutaneous injection", "type": "in vivo", "settings": "human, plasma, sc, patients, single 0.2 mg/kg subcutaneous injection, read-out: plasma concentration, average"}, "acute lethal septicemia": {"test_system": "acute lethal septicemia", "experiment": "Model of acute lethal septicemia (LPS)", "type": "in vivo", "settings": "3 doses (4 μg each) at −2, 0, and 0.5 hours of LPS; cumulative 0.6 mg/kg"}, "[6]": {"experiment": "Phase I and Phase IIa clinical trials, safety", "type": "in vivo, human", "settings": "Phase I and ongoing Phase IIa clinical trials"}, "[7]": {"test_system": "Vero cells, primary astrocytes, primary pericytes"}, "TMPRSS2": {"test_system": "TMPRSS2", "experiment": "TMPRSS2 inhibition"}, "mice, infarct size": {"test_system": "mice, infarct size", "experiment": "Infarct size reduction in mice", "settings": "0.15 mg/kg subcutaneous vs 5 mg/kg (100 μg) intraperitoneal"}, "[8]": {"test_system": "mice, OVA-induced allergic inflammation", "experiment": "Ovalbumin mouse model of allergic asthma", "settings": "single dose"}, "[9]": {"test_system": "adult dorsal root ganglion (DRG) neurons", "experiment": "Trypan blue survivability assay of DRG neurons", "settings": "100 ng/ml, 96 hours, vs 1% FBS control, NT-3 positive control"}, "mice, CAIA": {"test_system": "mice, CAIA", "experiment": "Acute mouse model of rheumatoid arthritis (CAIA)", "settings": "single administration, 0.6 mg/kg, Day 3 after paw swelling had started"}, "[10]": {"test_system": "mouse macrophages (J774A.1)", "experiment": "Inflammasome mediated IL-1β release after GP96 and ATP", "settings": "GP96 (priming) and ATP stimulation"}, "[11]": {"test_system": "Klebsiella pneumonia (KP)"}, "[12]": {"test_system": "PBMCs collected from the arthritic mice", "experiment": "Ex-vivo LPS exposure of PBMCs from treated arthritic mice", "settings": "mice treated daily, subcutaneous 0.6 mg/kg"}, "[13]": {"test_system": "adult dorsal root ganglion (DRG) neurons", "experiment": "Sprouting / neurite outgrowth of cultured primary adult DRG neurons", "settings": "100 or 500 ng/mL, 48 hours (and 96 hours), phase contrast images (FIG. 6A-6B)"}, "IMG microglial cells": {"test_system": "IMG microglial cells", "experiment": "Western blot of LRP1 and LC3 II/I in LPS activated IMG microglial cells", "settings": "100 μg/ml before LPS 100 ng/ml for 24 hours"}, "NFκB": {"test_system": "NFκB", "experiment": "NFκB reporter assay (THP1-XBlue-MD2-CD14 cells) stimulated with LPS, SEAP readout", "settings": "LPS stimulation (FIG. 2)"}, "TSLP": {"test_system": "TSLP", "experiment": "Planned co-culture of airway epithelial cells (ALI) with patient derived dendritic cells and PBMCs", "settings": "planned mechanistic assay"}}, "note": "Entries after “also recorded” stand apart in the source; their conditions may differ."}
{"smiles": "CCCC[C@H](NC(=O)[C@H](CC(C)C)NC(=O)[C@H](Cc1ccccc1)NC(=O)[C@@H](NC(=O)[C@H](Cc1ccccc1)NC(=O)[C@@H]1CCCN1C(=O)[C@H](CCCCN)NC(=O)[C@H](CC(N)=O)NC(=O)[C@H](Cc1ccccc1)NC(=O)[C@H](CCCCN)NC(=O)[C@@H](NC(C)=O)C(C)C)C(C)C)C(=O)N[C@H](C(=O)N[C@@H](CCC(=O)O)C(=O)N[C@@H](CCC(N)=O)C(=O)N[C@@H](CC(N)=O)C(=O)N[C@H](C(=O)N[C@@H](CCCCN)C(N)=O)[C@@H](C)O)[C@@H](C)CC", "note": "[VKFNKPFVFL[Nle]IEQNTK]", "values": [{"measurement": "first phase of the formalin test (licking)", "setting": "[1]", "value": "significantly reduced the first phase; also recorded: reduction of the first phase"}, {"measurement": "start of the second phase of the formalin test", "setting": "[1]", "value": "significantly delayed the start of the second phase; also recorded: delay in the second phase"}, {"measurement": "pain threshold, mechanical (Von Frey)", "setting": "[2]", "value": "increased the pain threshold of mechanical allodynia"}, {"measurement": "tolerance to heat, thermal (Hargreaves)", "setting": "[2]", "value": "increases the tolerance to heat"}, {"measurement": "viability of Vero cells", "setting": "Vero cells", "value": "increased the viability"}, {"measurement": "Cell Toxicity", "setting": "[3]", "value": "*Cell Toxicity tested and found to be >150 μg/ml in each cell line (top cone, tested)."}, {"measurement": "AUC(0-t)", "setting": "[4]", "value": 900, "unit": "ng·h/mL"}, {"measurement": "half-life", "setting": "[4]", "value": 1.9, "unit": "h"}, {"measurement": "Cmax", "setting": "[4]; read-out: Cmax (C0 μg/mL)", "value": 2500, "unit": "ng/mL"}, {"measurement": "level at 1.5 h", "setting": "[5]; 90 minutes following injection", "value": 2.4, "unit": "ng/mL"}, {"measurement": "level at 6 h", "setting": "[5]; six hours after injection", "value": 0.9, "unit": "ng/mL"}, {"measurement": "mortality over a 72-hour period", "setting": "acute lethal septicemia", "value": "significantly decreased mortality over a 72-hour period"}, {"measurement": "safety and tolerability", "setting": "[6]", "value": "safe and well tolerated"}, {"measurement": "toxicity to cells", "setting": "[7]", "value": "non-toxic to these cells at up to 100 μg/ml"}, {"measurement": "EC50", "setting": "Epstein Bar Virus", "value": 38.7, "unit": "µg/mL"}, {"measurement": "EC50", "setting": "Dengue virus 2", "value": 47, "unit": "µg/mL"}, {"measurement": "EC50", "setting": "Enterovirus-71", "value": 47, "unit": "µg/mL"}, {"measurement": "EC50", "setting": "Measles", "value": 47, "unit": "µg/mL"}, {"measurement": "IC50 against TMPRSS2", "setting": "TMPRSS2", "value": 1125, "unit": "ng/m L"}, {"measurement": "infarct size reduction", "setting": "mice, infarct size", "value": "same effective infarct size reduction"}, {"measurement": "serum CCL11", "setting": "[8]", "value": "reduced serum CCL11"}, {"measurement": "survivability of neurons", "setting": "[9]", "value": "robustly promoted neuronal survival; also recorded: increased survivability of the neurons compared to vehicle control and even greater than neurotrophic factor-3 (NT-3)"}, {"measurement": "paw swelling", "setting": "mice, CAIA", "value": "capable of reducing paw swelling"}, {"measurement": "inflammasome mediated IL-1β release", "setting": "[10]", "value": "reduced inflammasome mediated IL-1β release"}, {"measurement": "benefit in survival vs. vehicle control", "setting": "[11]; 12 mg/kg daily (13 doses total) after intranasal 600 CFU KP (LD100), 14 days, p<0.02", "value": 40, "unit": "%"}, {"measurement": "weight loss", "setting": "[11]; 12 mg/kg daily after KP exposure", "value": "decrease in weight loss was also observed"}, {"measurement": "cytokines IL-6 and TNF-α after ex-vivo LPS", "setting": "[12]", "value": "significantly lower vs. vehicle"}, {"measurement": "sprouting / neurite outgrowth", "setting": "[13]", "value": "robustly promoted sprouting; also recorded: greater neurite outgrowth in these cells compared to both control cells and Nerve Growth Factor (NGF)"}, {"measurement": "autophagy induction (LC3II/I ratio)", "setting": "IMG microglial cells", "value": "capable of restoring to near basal levels"}, {"measurement": "NFkB reduction compared with unmodified SP16", "setting": "NFκB", "value": "significantly improved NFkB reduction"}, {"measurement": "TSLP mediated effects", "setting": "TSLP", "value": "will reduce TSLP mediated effects"}]}
